From patent US12606546B2, “Small molecule inhibitors of calcium channel activity and uses thereof” (Arizona Board of Regents on Behalf of the University of …, priority 2020, dated 2026)

Tested on: high voltage activated calcium channels
Test: Fura-2AM calcium imaging, 90 mM KCl-evoked Ca2+ influx in DRG neurons

C[C@@H](c1ccccc1)n1nnnc1[C@H](c1ccsc1)N1CCC(n2c(=O)[nH]c3ccccc32)CC1 [5bl, 1-{1-[(S)-{1-[(1S)-1-phenylethyl]-1H-1,2,3,4-tetrazol-5-yl}(thiophen-3-yl)methyl]piperidin-4-yl}-2,3-dihydro-1H-1,3-benzodiazol-2-one]
inhibition of Ca2+ influx when DRGs were depolarized with 90 mM KCl: < 25%
